Apparent affinities of Ab-14 variants for a coronavirus HR2 peptide

Antigen: PDVDLGDISGINAS, a 14-residue peptide of the SARS-CoV-2 spike HR2 region.

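The parent was found by panning a naive human phage display library on the peptide. AAYL50 was designed without a model: most single CDR substitutions and a random sample of double and triple ones. In AlphaSeq, yeast of one mating type display the scFv and yeast of the other type display the target. Mating (16 h, 30 °C) was followed by selection of diploids and sequencing of their barcodes. Read counts were normalised to the haploid input and turned into Kd by a linear fit to BCL2-family pairs of known affinity, for each replicate. The assay was run in three technical replicates.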

Each scFv is VH, a (GGGGS)3 linker, VL, as in the parent Ab-14, and differs from it in the CDRs of the light chain only.
VH: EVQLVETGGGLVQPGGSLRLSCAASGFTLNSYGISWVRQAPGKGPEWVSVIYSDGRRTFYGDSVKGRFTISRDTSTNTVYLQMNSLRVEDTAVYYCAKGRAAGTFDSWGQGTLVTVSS
VL: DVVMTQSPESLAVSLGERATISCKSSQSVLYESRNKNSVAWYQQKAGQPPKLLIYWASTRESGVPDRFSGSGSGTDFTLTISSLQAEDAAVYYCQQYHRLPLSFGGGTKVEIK

Sequences are complete VL domains. Values are apparent Kd, the geometric mean of the replicates that gave a signal; lower means stronger binding. "no signal" means that the variant was in the library but no mating with the target was seen in any replicate; the authors take this as a sign of poor binding, and no number exists. The list is sorted by this average, lowest first, undetected variants last. Parent in this assay: reference entry 4.4 nM, copy in this library 48 nM. Empty control strains, which show no peptide, gave a signal in 18% of pairings with library AAYL50; the median was 15 µM and 95% of these signals were weaker than 970 nM. No background was subtracted. For each scFv, signals with the empty controls are counted beside the result.

VL | Kd (apparent) | detected | signal with controls
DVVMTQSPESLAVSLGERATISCKSSQSVLYESRNKNSVAWYQQKAGQPPKLLIYQASTRESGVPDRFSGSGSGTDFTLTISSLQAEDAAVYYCQQYHTLPLDFGGGTKVEIK | 1.1 nM | 3 of 3 | 4 of 9
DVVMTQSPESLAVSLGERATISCKSEQSQLYESRNKNSVAWYQQKAGQPPKLLIYWASTRESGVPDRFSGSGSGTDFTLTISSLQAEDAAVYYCQQYHELPLSFGGGTKVEIK | 5.7 nM | 3 of 3 | 0 of 9
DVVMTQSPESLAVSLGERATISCKSTMSVLYESRNKNSVAWYQQKAGQPPKLLIYWASTRESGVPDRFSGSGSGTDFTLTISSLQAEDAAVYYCQQYNRLPLSFGGGTKVEIK | 7.3 nM | 3 of 3 | 0 of 9
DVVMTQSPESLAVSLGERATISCKSSQSVLYESEDKNSVAWYQQKAGQPPKLLIYWASTREMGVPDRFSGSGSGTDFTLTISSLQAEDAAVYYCQQYHRLPLSFGGGTKVEIK | 9.4 nM | 3 of 3 | 1 of 9
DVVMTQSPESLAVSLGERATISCKSSQSVLYRSRNKNSVIWYQQKAGQPPKLLIYWASTKESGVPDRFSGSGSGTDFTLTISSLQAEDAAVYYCQQYHRLPLSFGGGTKVEIK | 14 nM | 3 of 3 | 3 of 9
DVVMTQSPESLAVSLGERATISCKSSQSVQYESRNKNSVAWYQQKAGQPPKLLIYWASTREEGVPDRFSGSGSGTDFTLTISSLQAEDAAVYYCQQYHRLSLSFGGGTKVEIK | 23 nM | 3 of 3 | 0 of 9
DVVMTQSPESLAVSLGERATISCKSSQSVLYESRNKNPVAWYQQKAGQPPKLLIYWASTRESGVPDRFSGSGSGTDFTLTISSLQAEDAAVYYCGQLHRLPLSFGGGTKVEIK | 28 nM | 3 of 3 | 2 of 9
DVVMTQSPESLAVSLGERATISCKSSQSVLYESYNKNSVAWYQQKAGQPPKLLIYWQSTRESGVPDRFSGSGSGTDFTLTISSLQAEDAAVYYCQQYHRLPFSFGGGTKVEIK | 32 nM | 3 of 3 | 0 of 9
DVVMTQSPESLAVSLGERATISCKSSQSVPYESRNKNSVAWYQQKAGQPPKLLIYWASLRESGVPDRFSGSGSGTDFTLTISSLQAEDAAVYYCQQYHALPLSFGGGTKVEIK | 37 nM | 3 of 3 | 1 of 9
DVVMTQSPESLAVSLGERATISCKSSQSVLYCSRNKNSVAWYQQKAGQPPKLLIYEDSTRESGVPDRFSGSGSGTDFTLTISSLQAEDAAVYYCQQYHRLPLSFGGGTKVEIK | 55 nM | 3 of 3 | 1 of 9
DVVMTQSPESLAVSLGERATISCKSSQSVRYESNNKNSVAWYQQKAGQPPKLLIYWISTRESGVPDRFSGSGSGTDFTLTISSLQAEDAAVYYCQQYHRLPLSFGGGTKVEIK | 120 nM | 3 of 3 | 5 of 9
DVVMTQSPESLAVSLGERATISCKSSQSVRYESRNKNSVAWYQQKAGQPPKLLIYWASTRESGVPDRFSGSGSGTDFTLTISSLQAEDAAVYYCTQYHRLPLSFGGGTKVEIK | 7.8 µM | 2 of 3 | 0 of 9
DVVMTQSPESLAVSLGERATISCKSSQSFLYESRNKNSVAWYQQKAGQPPKLLIYWASTSESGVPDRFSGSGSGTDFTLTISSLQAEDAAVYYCQQYHLLPLSFGGGTKVEIK | no signal | 0 of 3 | 1 of 9
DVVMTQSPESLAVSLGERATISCKSSQSVLYESRNKFQVAWYQQKAGQPPKLLIYWASTRESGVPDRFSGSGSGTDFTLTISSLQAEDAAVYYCQQYHRLPLKFGGGTKVEIK | no signal | 0 of 3 | 2 of 9
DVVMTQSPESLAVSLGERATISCKSSQSVLYESRNKMSVAWYQQKAGQPPKLLIYWASTRPSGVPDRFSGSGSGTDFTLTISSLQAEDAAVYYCQQDHRLPLSFGGGTKVEIK | no signal | 0 of 3 | 1 of 9
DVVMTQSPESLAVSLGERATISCKSSQSVLYESRNKNISAWYQQKAGQPPKLLIYWASTRESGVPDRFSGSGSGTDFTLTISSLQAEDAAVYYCQQYHRNPLSFGGGTKVEIK | no signal | 0 of 3 | 0 of 9
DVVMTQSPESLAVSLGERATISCKMSQSVLYESRNKNSVFWYQQKAGQPPKLLIYWASARESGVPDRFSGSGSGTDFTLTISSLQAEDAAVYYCQQYHRLPLSFGGGTKVEIK | no signal | 0 of 3 | 1 of 9

The last 2 entries again:

VL | Kd (apparent) | detected | signal with controls
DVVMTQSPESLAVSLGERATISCKSSQSVLYESRNKNISAWYQQKAGQPPKLLIYWASTRESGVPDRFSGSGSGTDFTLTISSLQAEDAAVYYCQQYHRNPLSFGGGTKVEIK | no signal | 0 of 3 | 0 of 9
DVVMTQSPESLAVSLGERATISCKMSQSVLYESRNKNSVFWYQQKAGQPPKLLIYWASARESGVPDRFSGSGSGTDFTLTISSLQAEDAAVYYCQQYHRLPLSFGGGTKVEIK | no signal | 0 of 3 | 1 of 9

The measurements come from Engelhart et al. 2022 (doi:10.1038/s41597-022-01779-4) through the FLAb antibody collection.